Data reported in PubChem BioAssay AID778 (Sanford-Burnham Center for Chemical Genomics, 2007).
The list shows a part of the results, in another mix than the full data. Calls of active or inactive are those of the source.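 The calls were made as follows: active = CYP2C19 inhibition above a set limit at 5 µM in the primary screen (cut at about 50% in these data); inactive = the rest.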

Amino acid sequences for entries named in this document (tags omitted).
UniProt P33261, whole entry: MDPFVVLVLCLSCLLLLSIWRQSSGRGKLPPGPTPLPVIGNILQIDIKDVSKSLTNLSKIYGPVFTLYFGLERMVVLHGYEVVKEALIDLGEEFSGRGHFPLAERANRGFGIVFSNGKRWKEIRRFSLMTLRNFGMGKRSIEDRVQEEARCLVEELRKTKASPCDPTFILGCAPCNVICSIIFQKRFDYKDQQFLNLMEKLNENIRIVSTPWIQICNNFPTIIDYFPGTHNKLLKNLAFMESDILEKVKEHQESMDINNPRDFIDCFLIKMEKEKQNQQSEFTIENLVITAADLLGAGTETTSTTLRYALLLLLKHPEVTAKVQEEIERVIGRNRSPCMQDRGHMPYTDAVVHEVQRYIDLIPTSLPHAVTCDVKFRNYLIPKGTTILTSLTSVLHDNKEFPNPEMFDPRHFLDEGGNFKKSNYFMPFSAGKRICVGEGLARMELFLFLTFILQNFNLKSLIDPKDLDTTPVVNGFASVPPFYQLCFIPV

Target: Cytochrome P450 2C19 (Homo sapiens) (UniProt P33261)
Experiment: blockers of cytochrome P450 2C19 activity – biochemical, luminescence, ADME assay, primary screen (AID 778);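 also: plate controls were negative control wells for no effect and 2.5 mM tranylcypromine positive control for full effect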
Conditions: CYP2C19 Supersomes, luciferin-H EGE luminescence, 30 min; at 5 µM; stronger effect = higher value

Compound | inhibition
Fc1ccccc1NC1CCN(Cc2ccccc2)CC1 | active: 85.5%
CCOc1ncccc1C(=O)NCC1(N2CCOCC2)CCCCC1 | inactive: 48.1%
CCC(CO)(C(=O)OC1CN2CCC1CC2)c1ccccc1 (stereo not given) | inactive: 2.6%
N/C(=N\O)c1c(N)no[n+]1[O-] | inactive: -4.3%
c1ccc(CN2CCC(Nc3ccccc3)CC2)cc1 | active: 87.2%
N#CC1(Nc2ccccc2)CCN(CCc2ccccc2)CC1 | inactive: 38.8%
O=C(NCC1(N2CCOCC2)CCCCC1)c1cc(=O)[nH]c2ccccc12 | inactive: -14.5%
O=C(NCC1(N2CCOCC2)CCCCC1)c1cc2ccccc2o1 | inactive: 13.5%
O=C(OC1CN2CCC1CC2)C1c2ccccc2Oc2ccccc21 (stereo not given) | inactive: 8.7%
COc1ccc(NC2CCN(CCc3ccccc3)CC2)c(OC)c1 | inactive: -2.4%
